Calls of active or inactive are those of the source. No cut-off for these calls is given here.
Target: Phosphatidylinositol 4-phosphate 5-kinase type-1 gamma (Homo sapiens) (UniProt O60331)
Assay: Inhibition of PIP5Kgamma (unknown origin)

Sequences of proteins named here, by UniProt entry; tags and fusion partners are left off. A change or cut given only in a name is not applied to a line headed by its entry.
UniProt O60331: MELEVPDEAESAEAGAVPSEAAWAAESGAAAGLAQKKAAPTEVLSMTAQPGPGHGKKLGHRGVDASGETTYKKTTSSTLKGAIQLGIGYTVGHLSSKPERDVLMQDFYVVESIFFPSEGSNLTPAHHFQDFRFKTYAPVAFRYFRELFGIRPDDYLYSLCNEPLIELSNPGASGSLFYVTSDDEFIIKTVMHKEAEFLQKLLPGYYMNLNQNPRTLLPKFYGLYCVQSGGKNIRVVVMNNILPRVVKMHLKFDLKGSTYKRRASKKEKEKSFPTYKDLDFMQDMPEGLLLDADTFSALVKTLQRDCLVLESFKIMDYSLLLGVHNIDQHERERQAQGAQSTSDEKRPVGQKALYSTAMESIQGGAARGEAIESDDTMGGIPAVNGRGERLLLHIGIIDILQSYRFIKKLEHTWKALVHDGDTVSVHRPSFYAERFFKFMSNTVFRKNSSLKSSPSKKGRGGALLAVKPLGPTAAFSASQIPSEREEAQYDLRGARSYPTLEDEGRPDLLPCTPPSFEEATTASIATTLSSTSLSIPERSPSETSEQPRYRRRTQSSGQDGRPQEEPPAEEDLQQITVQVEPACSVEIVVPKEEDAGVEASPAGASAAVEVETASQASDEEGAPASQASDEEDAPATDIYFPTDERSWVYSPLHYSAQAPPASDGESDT

## COc1cccc2cc(-c3nc([C@H]4CC[C@H](C(=O)O)CC4)n4ncnc(N)c34)[nH]c12 [OSI-027]
  inhibition: Active
